Antibody variant affinities, Ab-14 light chain, assay B

All variants were tested on one target, the spike HR2 peptide PDVDLGDISGINAS (SARS-CoV-2).

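Phage display of a naive human antibody library on the peptide gave the parent. These sequences belong to a second round, designed from the earlier measurements on random variants of the parent. Group labels follow the data file (Ctrl: baseline library sampled from a position-specific scoring matrix, with some repeated check sequences; En: ensemble of fine-tuned language models; GP: Gaussian process model; HC: hill climbing; Gen: genetic algorithm; Gibbs: Gibbs sampling; a sequence that several methods proposed may carry one label only). The scFvs were displayed on barcoded MATa yeast, the peptide on MATalpha yeast. Binding brings cells together so that they mate, and sequencing counts the barcode pairs among the diploids. A regression on co-assayed BCL2-family reference pairs converts the normalised counts of each replicate to an apparent Kd. Mating was done six times.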

The variants keep the heavy chain, the linker and the frameworks of Ab-14 (scFv order VH, the linker GGGGSGGGGSGGGGS, VL).
VH: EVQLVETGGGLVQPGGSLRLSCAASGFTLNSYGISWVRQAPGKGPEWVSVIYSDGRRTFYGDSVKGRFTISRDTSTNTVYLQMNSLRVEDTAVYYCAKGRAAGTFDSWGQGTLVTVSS
VL: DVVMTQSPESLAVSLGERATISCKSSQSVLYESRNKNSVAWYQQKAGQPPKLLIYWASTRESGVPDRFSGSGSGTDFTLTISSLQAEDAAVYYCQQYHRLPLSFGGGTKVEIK

The parent's light chain CDRs are KSSQSVLYESRNKNSVA, WASTRES, QQYHRLPLS; each variant's own CDRs replace them letter for letter. Variants here have more than six changes. Each Kd is an estimate from the mating assay, the geometric mean of the replicates in which the pair was seen; lower is stronger. An entry "nd" has no value in the source: the pair was not observed among the diploids in any replicate. This suggests poor binding but is not conclusive.

The variant KIEWYSQDNRLTISAIA | EASTIYQ | QQYGHLPLS [En_Gibbs] gave nd (0 of 6 replicates; controls 0 of 18). The variant KLSMQDEYQSRNKNQVA | NASTRYS | QQYHRLPLS [GP_Gibbs] gave 520 pM (6 of 6 replicates; controls 1 of 18). The variant SLGLVTMLEYAGRNSVA | NNSTRSD | QQYDRLPLS [En_Gen] showed 450 nM (4 of 6 replicates; controls 1 of 18). With KVPGSNDYESRNKNSVA | EASTREQ | QDYHRLPLS [GP_Gibbs] the result was 1.9 nM (6 of 6 replicates; controls 1 of 18). For MLSEVAHGLSRKENSVA | DNDTRNS | QQYDRLPLS [En_Gen], the assay gave 7.6 nM (6 of 6 replicates; controls 0 of 18). For KVSQSHPYEERNANNVA | NASDRES | QQYHRLPLS [GP_Gibbs], the assay gave 470 pM (6 of 6 replicates; controls 0 of 18). The variant KANQSVLHESRNKNSVA | EASTTES | QQKNRLPLS [Ctrl] showed 14 nM (5 of 6 replicates; controls 0 of 18).

The variant KVSEFMKGLMMRTDSIA | DNQTRES | QQYDRLPLS [En_Gen] gave 26 nM (6 of 6 replicates; controls 0 of 18). The variant TIGQTLMQGIRNRSNVA | EVSQRLN | QQYDRLPLA [En_Gen] gave 16 nM (6 of 6 replicates; controls 0 of 18). For TLYMGPTEARDSKHAIA | NMNERDR | QQYHRLPLV [En_Gibbs], the assay gave 2.5 nM (6 of 6 replicates; controls 1 of 18). With KLSESVLYQSQNWNQVA | DASTRMS | QQYHRLPLS [GP_Gibbs] the result was 670 pM (6 of 6 replicates; controls 2 of 18). The variant KVAELLEMGENFQSSIA | SGAHKVH | QQYYRLPLG [En_Gibbs] showed 5.0 nM (6 of 6 replicates; controls 0 of 18). The variant KLSQNVLFWGHAINSVA | EMETREN | QQYDRLPLS [En_HC] showed 9.1 nM (6 of 6 replicates; controls 3 of 18). For KIQHQHVGNWKTANNIA | QGDQRCS | QSYDRLPLS [En_Gibbs], the assay gave 5.0 nM (6 of 6 replicates; controls 0 of 18).

The variant NIVGRAQMQDSGRNAIA | NAHARCT | QQYFRLPLT [En_Gibbs] showed 6.1 nM (6 of 6 replicates; controls 2 of 18). The variant MIEEDNAGEQKNSSNIA | SVDQRED | QQYQRLPLM [En_Gibbs] gave 35 nM (6 of 6 replicates; controls 0 of 18). For TISGLIMMPSRAKNNVA | NTSTRYQ | QQYHRLPLS [En_HC], the assay gave 3.5 nM (6 of 6 replicates; controls 1 of 18). The variant NLKEMEGTNQTKHGNIA | SVDQRMS | QQYQRLPLI [En_Gibbs] showed 4.1 nM (6 of 6 replicates; controls 1 of 18). For TLYGLTNSMSKNKNNVA | EMSTREA | QQYDRLPLM [En_Gen], the assay gave 6.3 nM (6 of 6 replicates; controls 1 of 18). For TLSQSWGMESRHKNNVA | QEETREK | QQYFRLPIS [En_HC], the assay gave nd (0 of 6 replicates; controls 0 of 18). With TITGVMTQMSHSKNNVA | EVSERLD | QQYFRLPLE [En_Gen] the result was 6.6 nM (6 of 6 replicates; controls 1 of 18).

With KLSKMVMMGSRNKNSVA | SASQREE | QQYHRLPLS [GP_Gibbs] the result was 1.2 nM (6 of 6 replicates; controls 1 of 18). The variant HMSMLTLMGSRQRNSVA | QMTTREN | QQYDRLPLT [En_Gen] gave 110 nM (6 of 6 replicates; controls 2 of 18). For HMSMLTLMGMRQRNSVA | QMTTREN | QQYDRLPLM [En_Gen], the assay gave 13 nM (4 of 6 replicates; controls 0 of 18). The variant IFSQSVLMGNLTKNSVA | QASTRFS | QQYHRLPLI [En_HC] showed 55 nM (6 of 6 replicates; controls 1 of 18). With DMTGQFNGASNIQHSVA | HGVEKID | QQYVRLPLA [En_Gibbs] the result was 440 pM (6 of 6 replicates; controls 2 of 18). The variant DLTVSDNNGSQLENNIA | QGVEKCE | QQYSRLPLA [En_Gibbs] gave 7.3 nM (6 of 6 replicates; controls 0 of 18). With TLVGNIQYGGIMIKSIA | DNVQRAN | QQYYRLPLS [En_Gibbs] the result was 7.9 nM (6 of 6 replicates; controls 0 of 18).

With KISINQMNYNGMRSAIA | NTNQARM | QQYFHLPLM [En_Gibbs] the result was 4.5 nM (6 of 6 replicates; controls 3 of 18). The variant TLYGLSMSMAKNKNNVA | EMTTRED | QQYDRLPLI [En_Gen] gave 2.6 nM (6 of 6 replicates; controls 2 of 18). The variant KLALITGLEKVSKNNVA | EMETRER | QQYNRLPLS [En_Gen] gave 1.0 nM (6 of 6 replicates; controls 2 of 18). The variant KLMGIMRLEQKKSNSIA | EVNERSE | QQYDRLPLS [En_Gen] showed 79 nM (6 of 6 replicates; controls 2 of 18). For NLSDGDMYHNNTRSAVA | NTTMRDF | QQYNRLPLD [En_Gibbs], the assay gave nd (0 of 6 replicates; controls 0 of 18). For KIGGVTNGISFSKNSVA | EQSTREN | QQYDRLPLS [En_HC], the assay gave 2.4 nM (6 of 6 replicates; controls 0 of 18). The variant KVSPSHLYWSRNKNQVA | NASTRET | QQYHRLPLS [GP_Gibbs] gave 46 nM (6 of 6 replicates; controls 1 of 18).

For KIGATLNTLMHQKNNVA | DLVMRES | QQYHRLPLS [En_Gen], the assay gave 1.7 nM (6 of 6 replicates; controls 1 of 18). The variant KLQQSVQYESRNSNAVA | QASQRES | QQYHRLPLS [GP_Gibbs] gave 1.8 nM (6 of 6 replicates; controls 1 of 18). With VVKNMMNQMGTQHQNIA | NGAIKAD | QQYQRLPLW [En_Gibbs] the result was 1.0 nM (6 of 6 replicates; controls 1 of 18). With HFSQHTMEEMSSNKAVA | EVTTTMT | QQYARLPFI [En_Gibbs] the result was 20 nM (6 of 6 replicates; controls 0 of 18). The variant KIGMTLNQLMHQKNNVA | DLVEREN | QQYHRLPLS [En_Gen] showed 510 pM (6 of 6 replicates; controls 0 of 18). For TLSQSMDMTSRNVNSVA | DLNTRGN | QQYHRLPLS [En_HC], the assay gave 110 nM (3 of 6 replicates; controls 0 of 18). The variant KDMQSWLYWSRNQNSVA | NASQREH | QQYHRLPLS [GP_Gibbs] showed 1.8 nM (6 of 6 replicates; controls 5 of 18).

For KLSASMYRESMHENNVA | DLRARVE | QQYHRLPLS [En_HC], the assay gave 6.4 nM (6 of 6 replicates; controls 0 of 18). The variant KLSSYTGHMSVSKNNVA | EMETREE | QQYDRLPLS [En_Gen] gave 20 nM (6 of 6 replicates; controls 1 of 18). The variant LWSQSDLLESRNHNSVA | HASTRCS | QQYHRLPLS [GP_Gibbs] showed 11 nM (6 of 6 replicates; controls 0 of 18). The variant SMMFDTSDNYHERQNVA | DGAAIMN | QQYSILPLS [En_Gibbs] gave 13 nM (6 of 6 replicates; controls 0 of 18). The variant KLNISDGYEQRNKNSVA | EASTRED | QQYHRLPLS [GP_Gibbs] gave 470 pM (6 of 6 replicates; controls 1 of 18).

In the paper, a design with two or fewer of six values counts as a poor binder. Empty control strains, which show no peptide, gave a signal in 4% of pairings with all light chain designs; the median was 430 nM and 95% of these signals were weaker than 38 nM. No background was subtracted. For each scFv, signals with the empty controls are counted beside the result. Of ten entries with the parent sequence, four were seen in most replicates (averages 2.2 nM to 240 nM), three in one and three in none, so single entries are noisy. Values of this round are not directly comparable with the first-round values of the same sequences.

Data: MIT Lincoln Laboratory AlphaSeq set, Li et al. 2023, doi:10.1038/s41467-023-39022-2, as distributed in FLAb.